# Values of other authors, collected in patent US7622476B2, “Methods of using 1-allyl ergot alkaloid derivatives to treat migraines” (priority 2002, dated 2009).
# Sequences of proteins named here, by UniProt entry; tags and fusion partners are left off.
# UniProt P14842, whole entry: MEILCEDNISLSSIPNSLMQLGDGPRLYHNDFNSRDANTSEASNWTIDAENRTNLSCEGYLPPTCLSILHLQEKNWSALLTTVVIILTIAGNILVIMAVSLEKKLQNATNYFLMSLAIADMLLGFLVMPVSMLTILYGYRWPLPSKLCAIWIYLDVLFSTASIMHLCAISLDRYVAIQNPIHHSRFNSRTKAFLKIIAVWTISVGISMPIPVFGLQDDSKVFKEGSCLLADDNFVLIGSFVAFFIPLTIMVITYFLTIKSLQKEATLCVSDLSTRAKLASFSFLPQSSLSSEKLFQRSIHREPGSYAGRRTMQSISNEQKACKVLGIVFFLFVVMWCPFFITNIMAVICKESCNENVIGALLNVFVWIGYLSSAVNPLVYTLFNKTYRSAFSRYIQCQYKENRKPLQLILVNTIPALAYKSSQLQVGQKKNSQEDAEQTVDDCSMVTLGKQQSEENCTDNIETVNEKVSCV
# Biological target: T1, 5-HT2A receptors (Rattus norvegicus, UniProt P14842)
# T1 construct: characterizing 5-HT2A receptors in rat's caudal arteries; from tissue; host or cells: rat anterior caudal artery segments, endothelium stripped (male Wistar rats)
# Conditions: reference compounds marked *; values from H. Pertz (1996) Planta Med. 62, pp. 387-392; cited from earlier work
compound,measurement,value
C[C@@H]1C[C@@H]2c3cccc4[nH]cc(c34)C[C@H]2N(C)C1 [Festuclavine],5-HT2A pA2 value,6.63
